Results on one substance are retold here after patent publication US20100112601A1, “NOVEL MONOCLONAL ANTIBODY AND USE OF THE SAME” (Kyoto University, priority 2006, published 2010).

Read-outs that look alike come from different tables or passages of the source.

The target in assay [1] is T1, PAC1 (Homo sapiens, UniProt P41586).
T1 sequence (P41586 21-468): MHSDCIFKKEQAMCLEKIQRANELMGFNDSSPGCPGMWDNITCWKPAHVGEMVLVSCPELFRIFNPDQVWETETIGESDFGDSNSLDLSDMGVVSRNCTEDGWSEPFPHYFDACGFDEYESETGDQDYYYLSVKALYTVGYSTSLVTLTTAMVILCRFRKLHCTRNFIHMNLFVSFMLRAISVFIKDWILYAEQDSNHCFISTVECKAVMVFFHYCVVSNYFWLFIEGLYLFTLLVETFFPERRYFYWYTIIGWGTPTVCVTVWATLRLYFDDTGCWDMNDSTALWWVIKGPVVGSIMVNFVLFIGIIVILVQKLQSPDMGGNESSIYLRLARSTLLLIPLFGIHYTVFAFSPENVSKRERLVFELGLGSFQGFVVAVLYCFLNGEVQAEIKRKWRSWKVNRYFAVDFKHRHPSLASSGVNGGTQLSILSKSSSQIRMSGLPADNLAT
The experiment in a line: Inhibition of PACAP27-stimulated GTPγ-35S binding in membranes of CHO cells expressing PAC1 receptor. The assay is classed as biochemical. Further details: expressed in transfected cells; host or cells: Chinese hamster ovary (CHO) cells. Conditions: CHO membranes expressing PAC1, PACAP27 stimulation; order of magnitude; read-out: IC50 of inhibition of GTP-γS binding. The procedure:
Chinese hamster ovary (CHO) cells having the PAC1 receptor gene introduced and expressed therein were disrupted by a Polytronhomogenizer, and 150 fold diluted with a buffer solution containing 20 mM Tris-HCl, 1 mM EDTA, 5 mM MgCl2, 150 mM NaCl, 1 μM GDP, and 1% BSA to make 100 μL. 10 μL of the mouse anti-PAC1 monoclonal antibody obtained in Example 2 was added at various concentrations, and this was followed by incubation for 15 minutes at 25° C. Subsequently, 10 μl of 5 nM PACAP27 was added, and 10 μl of 10 nM GTPγ-^35S was further added, and this was followed by incubation for 60 minutes at 25° C. Subsequently, aspiration filtration was performed using a water-moistened GF/F glass filter (Whatman), and the filter was twice washed with 1.5 mL of a washing buffer solution containing 50 mM Tris-HCl (pH 7.4), 1 mM EDTA, 5 mM MgCl2, 0.05% CHAPS, and 0.1% BSA. The radioactivity of GTPγ-^35S captured on the filter was detected using a liquid scintillator. The measurement was performed twice. Taking a sample supplemented with D-PBS in place of the antibody as 100% bound, and one supplemented with the antagonist PACAP6-38 to obtain a final concentration of 1.5×10^−6 M as 0% bound, an evaluation was performed in terms of % of control.
(In general: Binding of GTPγS marks nucleotide exchange on a G protein.)

Assay [2] has as its target T1, PAC1. Conditions: Eur. J. Biochem. 207, 239 (1992); read-out: reported value of IC50 in the literature; cited from earlier work.

As to PACAP(6-38)NH2, the figures for the IC50 at PAC1 [1] and on PAC1 [2] were roughly 100 nM and 2 nM, respectively.

The term IC50 denotes the concentration that inhibits the measured activity by half.
